Test results published in US6042822A, “Interferon polymer conjugates” (Enzon, Inc., priority 1999, dated 2000).

Columns and labels:
[1] = system: EMC virus challenging A549 human lung carcinoma cells; assay: CPE assay / viral protection assay; type: cell-based; conditions: for CPE ACTIVITY (% CONTROL): Table 3, retained activity; for % ACTIVITY / IC50: Table 5; for IC50: N = 3 (native IFNα N = 6); for VIRAL PROTECTION ASSAY IC50 / ACTIVITY (%): Table 2; for ACTIVITY (%): CPE assay, EMC virus, A549 cells; for ACTIVITY (CPE) % OF CONTROL: Table 1, IFN-PEG12,000, no surfactant
Procedure: In these examples, additional preparations of PEG12,000 -rαIFN were prepared as described previously except that no surfactant was used. Following the conjugation reactions, the samples were tested for retained activity and PEG number.
(§1) In this example, the product of Example 3, (SDS-2-PEG-5,000 rαIFN), 2-PEG5,000 rαIFN made in the absence of a surfactant and unconjugated rαIFN were tested. Activity was determined using a CPE assay with EMC virus challenging A549 human lung carcinoma cells. Circulating life was determined using an average value obtained from the blood of 3 rats in a group receiving 1 million units, with time points taken over 7 days.
ASSAY: CPE Assay using serum samples in an EMC virus and
A549 human lung carcinoma.

[2] = Circulating half life in rats (Example 9); type: in vivo, rat; conditions: 3 rats, 1 million units, time points over 7 days
Procedure: as §1

[3] = Specific activity (MTT-CPE assay); type: cell-based; conditions: conjugation at higher pH
Procedure: The purified conjugates obtained at the different pHs were evaluated for their biological activity, hydroxylamine sensitivity and distribution of positional isomers. Biological activity was determined by specific activity (MTT-CPE assay).
Table 7 summarizes the specific bioactivity as determined using the MTT-CPE bioassay for IFN and the amount of IFN released upon treatment with 0.5M hydroxylamine for 2 hours at 25° C. for the different conjugate products. These findings confirm that the differences seen in FIG. 1 can also be related to different biological characteristics of the products.

[4] = Hydroxylamine sensitivity (conjugate converted to IFN); type: physicochemical; conditions: conjugation at higher pH
[5] = Pharmacokinetics after subcutaneous administration (Table 4 protocol); type: in vivo; conditions: Sprague Dawley rat, s.c., 10 × 10^6 UN IFN/rat, serum

Substance | CPE ACTIVITY (% CONTROL) [1] [%] | % ACTIVITY [1] [%] | IC50 [1] [ng/mL] | VIRAL PROTECTION ASSAY IC50 [1] [ng/mL] | ACTIVITY (%) [1] [%] | CIRCULATING HALF LIFE α PHASE [2] [h] | ACTIVITY (CPE) % OF CONTROL [1] [%] | other results
C: 2PEG-rαIFN conjugate, PEG molecular weight 12,000 | 26 | 26 | 0.0058 ± 0.0022 |  |  |  |  | 
D: 2PEG-rαIFN conjugate, PEG molecular weight 12,000 | 26 |  |  |  |  |  |  | 
Example 3: 2-PEG5,000 rαIFN fraction of the conjugate prepared with SDS | 69 | 69 | 0.0022 ± 0.0005 | 0.0022 | 69 | 5.8 |  | 
Example 6: PEG12,000-rαIFN prepared without surfactant; PEG # 1.2 |  |  |  |  |  |  | 26 | 
Example 7: PEG12,000-rαIFN prepared without surfactant; PEG # 1.3 |  |  |  |  |  |  | 26 | 
Example 8: PEG12,000-rαIFN prepared without surfactant; PEG # 1.0 |  |  |  |  |  |  | 24 | bioactivity in words [3]: less bioactive; hydroxylamine resistance in words [4]: more resistant to hydroxylamine
IFN-PEG5,000: 2-PEG5,000 rαIFN made in the absence of a surfactant | 35 | 35 | 0.004 | 0.004 | 30 | 6.8 |  | 
NATIVE IFNα: unconjugated recombinant αIFN-2b (rαIFN), a product of the Schering-Plough Corporation |  | 100 | 0.00152 | 0.0015 | 100 | 0.17 |  | Cmax [5]: 60,000 IU/ml; T1/2 α PHASE [5]: 0.17 h
